Molecular target: CYP1A in human liver microsomes (HLM) (Homo sapiens, UniProt P05177)
Assay: Inhibition of NCMN-O-demethylation by CYP inhibitors in human liver microsomes
Settings: 10 µM NCMN, 100 µM furafylline, 10 µM sulfaphenazole, 200 µM troleandomycin, 500 µM 1-ABT

Amino acid sequences for entries named in this document (tags omitted). Residues count along the entry.
UniProt P05177, 2-516: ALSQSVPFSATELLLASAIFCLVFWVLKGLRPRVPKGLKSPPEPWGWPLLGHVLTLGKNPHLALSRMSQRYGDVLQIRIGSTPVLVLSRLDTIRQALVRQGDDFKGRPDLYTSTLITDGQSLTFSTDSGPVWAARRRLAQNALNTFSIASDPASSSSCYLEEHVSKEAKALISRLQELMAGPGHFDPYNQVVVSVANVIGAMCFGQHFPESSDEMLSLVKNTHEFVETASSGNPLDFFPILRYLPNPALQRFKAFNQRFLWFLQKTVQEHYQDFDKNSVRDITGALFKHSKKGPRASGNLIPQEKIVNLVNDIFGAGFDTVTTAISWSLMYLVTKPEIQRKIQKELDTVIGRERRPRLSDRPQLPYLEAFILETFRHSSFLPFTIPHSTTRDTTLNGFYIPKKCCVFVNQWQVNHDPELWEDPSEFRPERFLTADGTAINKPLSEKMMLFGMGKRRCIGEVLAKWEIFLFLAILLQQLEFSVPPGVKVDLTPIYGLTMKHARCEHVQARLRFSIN

SMILES: Cc1nc2c([nH]1)c(=O)n(C)c(=O)n2Cc1ccco1 [furafylline]
- Inhibition of the formation of NCHN: near completely
